# Properties, as collected for the OPERA models

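OPERA's authors assembled the values from existing databases and did not measure them anew. The files give a single number for a compound and property, which may rest on several reports. How each value was measured is not recorded, so precision varies. The measured form (salt, isomer or mixture) is not always the one drawn. Some upstream entries may be estimates or bounds without being marked so.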

The melting point is given in degrees Celsius.
The boiling point refers to atmospheric pressure (760 mmHg), by the definition of the set.
logP is the log10 of the octanol-water partition coefficient; higher is more lipophilic.
Water solubility is log10 of mol/L, nominally at 25 °C; higher is more soluble.
Vapor pressures (log10 mmHg) refer to near room temperature, 15 to 30 °C; higher is more volatile.
Henry's law constant (air-water partitioning) is log10 of atm·m3/mol, nominally at 25 °C.
fu is the fraction unbound in human plasma, from 0 to 1.
Clint is human hepatic intrinsic clearance in µL/min per million cells; 0 means that no clearance was seen.

* CC(C)(C)c1cc(CCC(=O)NNC(=O)CCc2cc(C(C)(C)C)c(O)c(C(C)(C)C)c2)cc(C(C)(C)C)c1O: MP 226.5 °C; log Kow 4.8; log vapor pressure -12 (log10 mmHg)
* O=[N+]([O-])c1c(OCCO)nn2ccccc12 [2-((3-Nitropyrazolo(1,5-a)pyridin-2-yl)oxy)ethanol]: MP 165.6 °C; log solubility -3.272 (log10 mol/L)
* Cn1cc(C(O)=Nc2ccc(F)cc2-c2ccc(Cl)c(Cl)c2)c(C(F)F)n1 [Bixafen]: MP 147 °C; log solubility -5.932 (log10 mol/L)
* NC(=O)C1CCCN1C(=O)COC(=O)c1ccccc1 (centres undefined) [2-(2-Carbamoyl-1-pyrrolidinyl)-2-oxoethyl benzoate]: MP 194 °C; log solubility -2.265 (log10 mol/L)
* CNCC(O)c1ccc(OC(=O)C(C)(C)C)c(OC(=O)C(C)(C)C)c1 (centres undefined) [Dipivefrin]: log Kow 1.7; log solubility -3.781 (log10 mol/L)
* Nc1cc(-c2ccncc2)c[nH]c1=O [Amrinone]: log solubility -1.524 (log10 mol/L); plasma fu 0.89
* O=C(OC[C@@H]1CO[C@](CBr)(c2ccc(Cl)cc2Cl)O1)c1ccccc1: MP 116.8 °C; log solubility -7.57 (log10 mol/L); log vapor pressure -8.78 (log10 mmHg)
* CN(C)CCCO [1-Propanol, 3-(dimethylamino)-]: log Kow -0.24; log vapor pressure 0.082 (log10 mmHg)
* CCC(C)NC1CCC(CC2CCC(NC(C)CC)CC2)CC1 (centres undefined) [Cyclohexanamine, 4,4'-methylenebis[N-(1-methylpropyl)-]: log solubility -3.391 (log10 mol/L); log vapor pressure -5.213 (log10 mmHg)
* CC(=O)O[Si](C)(OC(C)=O)OC(C)C [Silanediol, 1-methyl-1-(1-methylethoxy)-, 1,1-diacetate]: MP -139 °C; bp 171.3 °C
* CCCCCCCCCCCCCCCC[Si](Cl)(Cl)Cl [Silane, trichlorohexadecyl-]: bp 269 °C; log vapor pressure -4.28 (log10 mmHg)
* COc1ccc(S(=O)(=O)CCOS(=O)(=O)[O-])cc1/N=N/c1c(S(=O)(=O)[O-])cc2cc(S(=O)(=O)[O-])c(/N=N/c3ccc(S(=O)(=O)CCOS(=O)(=O)[O-])cc3)c(N)c2c1O.[Na+].[Na+].[Na+].[Na+] [C.I. Reactive Blue 250]: log Kow -4.7; log vapor pressure -8.988 (log10 mmHg)
* O=C1Cc2cc(CCN3CCN(c4nsc5ccccc45)CC3)c(Cl)cc2N1 [Ziprasidone]: MP 288 °C; log Kow 3.8
* COC(=O)[C@@H]1CC2=CC(=O)CC[C@]2(C)[C@@]23O[C@@H]2C[C@@]2(C)[C@@H](CC[C@@]24CCC(=O)O4)[C@H]13 [Eplerenone]: log solubility -4.662 (log10 mol/L); plasma fu 0.54
* CCOC(=O)[C@@H]1[C@@H](C)CCCC1(C)C (stereo in doubt) [Ethyl (1R,6S)-2,2,6-trimethylcyclohexanecarboxylate]: log Kow 4.51; log solubility -3.803 (log10 mol/L); log vapor pressure -0.65 (log10 mmHg)
* CCCCOC(=O)c1ccc(O)cc1 [Butylparaben]: plasma fu 0.04157; Clint 39.3 µL/min/10^6 cells
* O=C(O)C(F)(F)C(F)(F)C(F)(F)F [Perfluorobutanoic acid]: log solubility -2.68 (log10 mol/L); log H -4.912 (log10 atm·m3/mol)
* CCCC(O)CC[C@@H]1[C@@H](C)CCCC1(C)C (stereo in doubt): bp 295.1 °C; log Kow 5.8; log solubility -3.94 (log10 mol/L); log vapor pressure -3.185 (log10 mmHg)
* Cc1cc(C(C)(C)C)c(O)c(C)c1CC1=NCCN1 [Oxymetazoline]: log Kow 3.4; log solubility -3.704 (log10 mol/L)
* CNc1cccc2c1C(=O)c1ccccc1C2=O [1-(Methylamino)anthraquinone]: log solubility -6.3 (log10 mol/L); log vapor pressure -8.155 (log10 mmHg)
* CCCCCCCCCCCC(=O)N[C@@H](CCCNC(=N)N)C(=O)OCC.Cl [Ethyl-N2-dodecanoyl-L-argininate hydrochloride]: log Kow 1.43; log vapor pressure -5.389 (log10 mmHg)
* CC(=O)C(=NNc1ccc(-c2ccc(NN=C(C(C)=O)C(=O)Nc3ccc(C)cc3C)c(Cl)c2)cc1Cl)C(=O)Nc1ccc(C)cc1C [C.I. Pigment Yellow 13]: log Kow 1.8; log solubility -7.535 (log10 mol/L)
* CC(=O)Nc1ccc(Nc2ccc(O)c3c2C(=O)c2ccccc2C3=O)cc1: log Kow 3.151; log solubility -6.249 (log10 mol/L)
* CCCCC(CC)COC(=O)OCC(CC)CCCC (centres undefined) [Bis(2-ethylhexyl) carbonate]: log Kow 4.1; log vapor pressure -3.954 (log10 mmHg)
* CCCCCCCC[Si](OC)(OC)OC [Trimethoxycaprylylsilane]: MP -66 °C; log Kow 3.9; log solubility -4.246 (log10 mol/L); log vapor pressure -1.803 (log10 mmHg)
* CN1c2ccccc2C(=O)c2ccc(Cl)cc2S1(=O)=O: MP 174 °C; log solubility -5.962 (log10 mol/L); log vapor pressure -8.897 (log10 mmHg)
* CCCCCCCCCCCCS [1-Dodecanethiol]: log Kow 6.35; log solubility -7.574 (log10 mol/L)
* CCOC(=O)/C=C(\NC)C(F)(F)F [Ethyl (2Z)-4,4,4-trifluoro-3-(methylamino)-2-butenoate]: bp 171 °C; log Kow 3; log solubility -2.948 (log10 mol/L); log vapor pressure -0.023 (log10 mmHg)
* OCCN1CCNCC1 [1-Piperazineethanol]: log Kow -1.47; log vapor pressure -2.162 (log10 mmHg)
* C=CC(C)C(O)c1ccc(Cl)cc1 (centres undefined) [1-(4-chloro-phenyl)-2-methyl-but-3-en-1-ol]: bp 254 °C; log Kow 3.3; log solubility -2.561 (log10 mol/L); log vapor pressure -2.686 (log10 mmHg)
* CC(Cl)C(Cl)(Cl)C(O)N=C(O)CCl (centres undefined) [2-Chloro-N-(2,2,3-trichloro-1-hydroxybutyl)ethanimidic acid]: MP -7.8 °C; bp 142 °C
* COC(=O)c1cccc(C)c1S(=O)(=O)NC(=O)Nc1nc(OCC(F)(F)F)nc(N(C)C)n1 [Triflusulfuron-methyl]: log solubility -3.28 (log10 mol/L); plasma fu 0.3293; Clint 14.47 µL/min/10^6 cells
* CCCCCCCCCCCCN1CCCCCC1=O [Laurocapram]: plasma fu 0.00275; Clint 9.8 µL/min/10^6 cells
* OC[C@H](O)[C@@H]1OC(c2ccc(Cl)cc2)O[C@@H]2COC(c3ccc(Cl)cc3)O[C@H]12 (some centres undefined): log Kow 3.68; log solubility -6.108 (log10 mol/L); log vapor pressure -7.411 (log10 mmHg)

The last 4 entries again:

- CC(Cl)C(Cl)(Cl)C(O)N=C(O)CCl (centres undefined) [2-Chloro-N-(2,2,3-trichloro-1-hydroxybutyl)ethanimidic acid]: MP -7.8 °C; bp 142 °C
- COC(=O)c1cccc(C)c1S(=O)(=O)NC(=O)Nc1nc(OCC(F)(F)F)nc(N(C)C)n1 [Triflusulfuron-methyl]: log solubility -3.28 (log10 mol/L); plasma fu 0.3293; Clint 14.47 µL/min/10^6 cells
- CCCCCCCCCCCCN1CCCCCC1=O [Laurocapram]: plasma fu 0.00275; Clint 9.8 µL/min/10^6 cells
- OC[C@H](O)[C@@H]1OC(c2ccc(Cl)cc2)O[C@@H]2COC(c3ccc(Cl)cc3)O[C@H]12 (some centres undefined): log Kow 3.68; log solubility -6.108 (log10 mol/L); log vapor pressure -7.411 (log10 mmHg)

From the experimental data distributed with OPERA 2.9.